Article PMC7101356, “Cross-site and cross-platform variability of automated patch clamp assessments of drug effects on human cardiac currents in recombinant cells” (Scientific Reports, 2020)

Chains of the proteins cited; added tags and fusions are not shown. Lines headed by an entry give the natural chain unless they say otherwise; changes in a name come on top.
UniProt Q12809: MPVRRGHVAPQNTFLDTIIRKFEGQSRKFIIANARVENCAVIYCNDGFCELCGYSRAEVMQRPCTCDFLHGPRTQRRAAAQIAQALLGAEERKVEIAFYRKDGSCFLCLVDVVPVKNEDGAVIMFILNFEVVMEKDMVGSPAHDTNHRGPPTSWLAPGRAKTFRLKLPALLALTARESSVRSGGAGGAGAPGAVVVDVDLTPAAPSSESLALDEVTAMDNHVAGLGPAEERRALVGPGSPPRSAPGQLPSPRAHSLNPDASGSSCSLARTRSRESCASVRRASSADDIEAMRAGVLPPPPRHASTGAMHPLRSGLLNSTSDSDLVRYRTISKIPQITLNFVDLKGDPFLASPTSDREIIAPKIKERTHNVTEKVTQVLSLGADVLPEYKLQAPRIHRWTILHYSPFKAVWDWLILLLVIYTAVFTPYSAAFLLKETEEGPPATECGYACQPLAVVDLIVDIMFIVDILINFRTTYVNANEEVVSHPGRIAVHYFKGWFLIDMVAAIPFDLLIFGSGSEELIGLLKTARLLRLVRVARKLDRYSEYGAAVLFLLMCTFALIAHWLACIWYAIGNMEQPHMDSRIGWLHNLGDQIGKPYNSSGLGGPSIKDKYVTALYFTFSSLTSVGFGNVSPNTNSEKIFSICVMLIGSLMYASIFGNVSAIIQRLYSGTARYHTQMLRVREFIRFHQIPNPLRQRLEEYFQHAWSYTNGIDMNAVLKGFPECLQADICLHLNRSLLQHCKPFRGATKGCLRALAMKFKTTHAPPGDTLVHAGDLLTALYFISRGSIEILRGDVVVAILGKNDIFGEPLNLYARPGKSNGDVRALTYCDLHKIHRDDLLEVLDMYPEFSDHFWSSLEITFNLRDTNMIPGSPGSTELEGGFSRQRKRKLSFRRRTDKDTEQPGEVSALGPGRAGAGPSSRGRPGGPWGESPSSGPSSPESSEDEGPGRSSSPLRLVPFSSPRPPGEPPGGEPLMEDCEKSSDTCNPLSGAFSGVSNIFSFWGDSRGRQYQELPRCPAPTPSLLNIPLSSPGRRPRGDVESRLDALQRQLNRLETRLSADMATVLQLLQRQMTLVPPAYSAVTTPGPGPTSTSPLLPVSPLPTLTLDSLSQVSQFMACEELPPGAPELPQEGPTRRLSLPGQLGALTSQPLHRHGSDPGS
UniProt Q13936, whole entry: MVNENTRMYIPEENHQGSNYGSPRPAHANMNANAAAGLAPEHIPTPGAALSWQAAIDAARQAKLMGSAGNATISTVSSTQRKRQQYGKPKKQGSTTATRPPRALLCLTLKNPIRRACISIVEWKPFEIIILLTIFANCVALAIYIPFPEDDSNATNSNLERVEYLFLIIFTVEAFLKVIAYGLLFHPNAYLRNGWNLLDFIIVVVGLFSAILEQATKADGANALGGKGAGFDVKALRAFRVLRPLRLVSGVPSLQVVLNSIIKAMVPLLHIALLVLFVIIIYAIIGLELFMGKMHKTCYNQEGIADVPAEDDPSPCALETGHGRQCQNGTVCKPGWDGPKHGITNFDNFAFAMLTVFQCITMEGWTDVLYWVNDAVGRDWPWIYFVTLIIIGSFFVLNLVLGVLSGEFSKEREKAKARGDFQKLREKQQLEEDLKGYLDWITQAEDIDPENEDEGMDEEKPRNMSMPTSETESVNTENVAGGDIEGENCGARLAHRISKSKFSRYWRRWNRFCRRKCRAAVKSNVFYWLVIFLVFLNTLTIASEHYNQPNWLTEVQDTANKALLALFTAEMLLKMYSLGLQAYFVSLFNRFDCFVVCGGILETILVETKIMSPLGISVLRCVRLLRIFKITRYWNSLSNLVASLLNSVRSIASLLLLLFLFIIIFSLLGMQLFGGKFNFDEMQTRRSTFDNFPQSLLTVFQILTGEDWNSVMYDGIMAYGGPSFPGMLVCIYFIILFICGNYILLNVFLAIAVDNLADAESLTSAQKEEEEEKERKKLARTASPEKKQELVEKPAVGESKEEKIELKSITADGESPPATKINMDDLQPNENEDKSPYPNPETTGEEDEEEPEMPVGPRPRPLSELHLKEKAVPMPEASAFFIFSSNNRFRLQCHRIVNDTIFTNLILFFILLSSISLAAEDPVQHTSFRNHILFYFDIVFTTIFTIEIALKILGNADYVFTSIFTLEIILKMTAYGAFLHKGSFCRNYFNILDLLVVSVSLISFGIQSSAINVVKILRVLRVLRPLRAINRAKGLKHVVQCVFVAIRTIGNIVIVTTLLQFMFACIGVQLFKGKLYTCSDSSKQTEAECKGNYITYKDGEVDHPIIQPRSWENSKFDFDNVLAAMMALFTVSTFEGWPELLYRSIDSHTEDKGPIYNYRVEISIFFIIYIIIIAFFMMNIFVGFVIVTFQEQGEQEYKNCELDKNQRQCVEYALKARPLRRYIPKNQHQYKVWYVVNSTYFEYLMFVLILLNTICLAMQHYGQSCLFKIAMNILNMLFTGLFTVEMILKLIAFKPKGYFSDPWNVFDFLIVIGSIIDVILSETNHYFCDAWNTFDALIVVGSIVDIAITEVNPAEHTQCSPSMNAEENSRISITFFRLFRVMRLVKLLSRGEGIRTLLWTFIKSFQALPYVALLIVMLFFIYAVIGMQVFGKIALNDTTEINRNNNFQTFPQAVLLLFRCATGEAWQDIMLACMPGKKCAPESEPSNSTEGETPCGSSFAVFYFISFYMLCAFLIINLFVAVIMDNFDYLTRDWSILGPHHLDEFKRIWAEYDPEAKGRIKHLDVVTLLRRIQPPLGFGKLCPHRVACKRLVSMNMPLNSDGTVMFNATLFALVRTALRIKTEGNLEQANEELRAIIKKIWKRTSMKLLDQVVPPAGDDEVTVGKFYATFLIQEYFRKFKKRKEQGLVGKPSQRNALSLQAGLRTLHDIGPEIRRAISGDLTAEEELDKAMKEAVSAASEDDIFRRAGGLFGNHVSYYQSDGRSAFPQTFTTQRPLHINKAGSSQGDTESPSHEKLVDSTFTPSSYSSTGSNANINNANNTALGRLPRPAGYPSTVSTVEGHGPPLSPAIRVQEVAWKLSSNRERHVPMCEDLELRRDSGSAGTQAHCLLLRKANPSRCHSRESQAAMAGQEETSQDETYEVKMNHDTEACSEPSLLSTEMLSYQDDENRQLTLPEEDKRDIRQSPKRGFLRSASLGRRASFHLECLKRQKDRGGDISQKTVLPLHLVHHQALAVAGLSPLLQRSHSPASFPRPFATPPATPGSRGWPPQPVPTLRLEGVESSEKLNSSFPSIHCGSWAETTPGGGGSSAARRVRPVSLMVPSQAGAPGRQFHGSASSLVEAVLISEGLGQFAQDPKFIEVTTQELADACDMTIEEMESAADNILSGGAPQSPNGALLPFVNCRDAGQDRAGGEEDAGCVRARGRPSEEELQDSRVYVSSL

Tests used:
hERG [1] = target: T1, hERG (Homo sapiens, UniProt Q12809); conditions: 90 nM, HEK293 cells at 22 °C, manual patch clamp, n = 83 cells; cited from earlier work
hERG [2] = target: T1, hERG; assay: cell-based
hERG [3] = target: T1, hERG
hCav1.2 = hCav1.2 (Homo sapiens, UniProt Q13936); assay: Automated patch clamp, hCav1.2 current block; conditions: for IC50: log IC50, half-maximal inhibitory concentration
hERG [4] = target: T1, hERG; assay: in vitro; conditions: hERG K+ current inhibition, Mean
hERG [5] = target: T1, hERG; assay: Automated patch clamp, hERG current block, Milnes protocol (site s06)
[6] = hERG K+ current log IC50, s04_p3, CHO, room temperature

COc1cc(N)c(Cl)cc1C(=O)NC1CCN(CCCOc2ccc(F)cc2)CC1OC (stereo not drawn) [cis, cisapride]
hERG current inhibition (mean ± SD) (hERG [1]): 83.4 ± 7.7%

Cc1nccn1CC1CCc2c(c3ccccc3n2C)C1=O (centres unmarked) [ond, ondansetron]
IC50 (hERG [2]; [6]): 1200 nM

CC(C)COCC(CN(Cc1ccccc1)c1ccccc1)N1CCCC1 (centres unmarked) [bep, bepridil]
nH (Hill slope), hERG K+ current inhibition (hERG [3]; […]): 1.66
hERG K+ current nH, Hill slope (hERG [3]; s01_p1, CHO, 23 °C): 1.25
hERG K+ current log IC50 (hERG [3]; s02_p2, HEK293, 22–26 °C): -6.55 log mol/L
hERG K+ current nH, Hill slope (hERG [3]; s02_p2, HEK293, 22–26 °C): 1.41
hERG K+ current nH, Hill slope (hERG [3]; s03_p2, HEK293, room temperature): 1.50
hERG K+ current nH, Hill slope (hERG [3]; s04_p3, CHO, room temperature): 0.99
hERG K+ current nH, Hill slope (hERG [3]; s05_p4, HEK293, 22–24 °C): 1.21
hERG K+ current nH, Hill slope (hERG [3]; s15_p1, HEK293, 22–23 °C): 1.26
hERG K+ current nH, Hill slope (hERG [3]; s16_p3, HEK293, room temperature): 1.29
hERG K+ current nH, Hill slope (hERG [3]; s18_p1, CHO, 35 °C): 1.32
hERG K+ current nH, Hill slope (hERG [3]; s19_p3, CHO, room temperature): 1.10
nH (Hill slope), hERG K+ current inhibition (hERG [3]; site_platform s10_p3): 1.36
nH (Hill slope), hERG K+ current inhibition (hERG [3]; site_platform s11_p1): 1.00
nH (Hill slope), hERG K+ current inhibition (hERG [3]; site_platform s12_p2): 1.27
nH (Hill slope), hERG K+ current inhibition (hERG [3]; site_platform s13_p2): 1.05
nH (Hill slope), hERG K+ current inhibition (hERG [3]; site_platform s14_p1): 0.58
IC50 (hCav1.2; site s02_p2, corrected for rundown): 832 nM
IC50 (hCav1.2; site s16_p3): 302 nM
log IC50, half-maximal inhibitory concentration (hCav1.2; site s01_p1): no inh.
log IC50, half-maximal inhibitory concentration (hCav1.2; site s04_p3): no inh.
log IC50, half-maximal inhibitory concentration (hCav1.2; site s06_p4): no inh.
log IC50, half-maximal inhibitory concentration (hCav1.2; site s11_p1): no inh.
log IC50, half-maximal inhibitory concentration (hCav1.2; site s14_p1): no inh.
inhibition at 1e-08 mol/L (hERG [4]; site_platform s12_p2, 1.00E-08 mol/L): 2.3%
inhibition at 1e-08 mol/L (hERG [4]; site_platform s13_p2, 1.00E-08 mol/L): 4.3%
inhibition at 3e-07 mol/L (hERG [4]; recombinant cells expressing hERG, […], 3.00E-07 mol/L): 85.5%
inhibition at 4 min, 3e-07 mol/L (hERG [4]; recombinant cells expressing hERG, site_platform s10_p3, 3.00E-07 mol/L): 59.6%
inhibition at 7 min, 3e-07 mol/L (hERG [4]; recombinant cells expressing hERG, site_platform s11_p1, 3.00E-07 mol/L): 90.8%
inhibition at 3e-07 mol/L (hERG [4]; recombinant cells expressing hERG, site_platform s12_p2, 3.00E-07 mol/L): 66.8%
inhibition at 3e-07 mol/L (hERG [4]; recombinant cells expressing hERG, site_platform s13_p2, 3.00E-07 mol/L): 61.5%
inhibition at 7 min, 3e-07 mol/L (hERG [4]; recombinant cells expressing hERG, site_platform s14_p1, 3.00E-07 mol/L): 79.8%
IC50 (hERG [5]): 275 nM
hERG K+ current nH, Hill slope (hERG [5]; s06_p4, HEK293, 22–24 °C, Milnes protocol): 1.48
hERG K+ current inhibition, Mean, at maximal concentration (hERG [5]; s06_p4, HEK293, 22–24 °C, Milnes protocol, max conc [mol/L]: bep 3.00E-07, cpz 3.00E-06, cis 3.00E-07, dil 1.00E-04, dof 1.00E-07, mex 1.00E-04, ond 1.00E-05, qui 1.00E-05, ran 1.00E-04, sot 3.00E-04, ter 3.00E-07, ver 1.00E-06): 56.3%
hERG K+ current inhibition, Mean, at minimal concentration (hERG [5]; s06_p4, HEK293, 22–24 °C, Milnes protocol, min conc [mol/L]: bep 1.00E-08, cpz 1.00E-07, cis 1.00E-09, dil 3.00E-06, dof 1.00E-09, mex 1.00E-06, ond 3.00E-07, qui 1.00E-07, ran 3.00E-06, sot 1.00E-05, ter 1.00E-08, ver 3.00E-08): 3.6%
IC50 (hERG [2]; hERG K+ current log IC50, s01_p1, CHO, 23 °C): 107 nM
IC50 (hERG [2]; hERG K+ current log IC50, s03_p2, HEK293, room temperature): 61.7 nM
IC50 (hERG [2]; [6]): 204 nM
IC50 (hERG [2]; hERG K+ current log IC50, s05_p4, HEK293, 22–24 °C): 123 nM
IC50 (hERG [2]; hERG K+ current log IC50, s15_p1, HEK293, 22–23 °C): 63.1 nM
IC50 (hERG [2]; hERG K+ current log IC50, s16_p3, HEK293, room temperature): 229 nM
IC50 (hERG [2]; hERG K+ current log IC50, s18_p1, CHO, 35 °C): 49 nM
IC50 (hERG [2]; hERG K+ current log IC50, s19_p3, CHO, room temperature): 347 nM
IC50 (hERG [2]; log IC50, hERG K+ current inhibition, site_platform s10_p3): 240 nM
IC50 (hERG [2]; log IC50, hERG K+ current inhibition, site_platform s11_p1): 47.9 nM
IC50 (hERG [2]; log IC50, hERG K+ current inhibition, site_platform s12_p2): 182 nM
IC50 (hERG [2]; log IC50, hERG K+ current inhibition, site_platform s13_p2): 209 nM
IC50 (hERG [2]; log IC50, hERG K+ current inhibition, site_platform s14_p1): 46.8 nM

Like-named read-outs stand apart in the source and are kept apart here.
